Source: patent EP4825847A1, “NMDA RECEPTOR ANTAGONIST AND USE THEREOF” (dated 2026)

Columns and labels:
C57BL/6J male mice [1] = experiment: Toxicity test of compounds (non-toxic dose exploration, epilepsy-like behavior score); conditions: i.p.; for NOAEL dosage (mg/kg) (score 0): epilepsy-like behavior score 0; for NOAEL doses: compared with Comparative Compound 2-SS mesylate; for STD10 (mg/kg) (score 8): dose at which 10% of the animals have severe toxic reaction
Protocol: The exploration test of non-toxic dose of the compound is an important index to evaluate the safety of the compound. High safety will bring a higher treatment window. The animal information was the same as that in Test Example 2.
• 1. The test was carried out in a quiet environment. The animals were weighed and acclimated in the test chamber for at least 30 min before the test. • 2. The compound to be tested was dissolved in 0.9% physiological saline, and the corresponding volume of the compound was intraperitoneally injected (i.p.) according to the weight of mice. The dosage was the target dosage of administration. The number of animals in each group was 2 or 3. • 3. The mice after administration were placed in a transparent observation chamber, and the behavior changes of the mice were video recorded and observed for about one hour. (Note: During the observation period, if the mouse was lying still, the mouse was turned over by hand, and whether the righting reflex (RR) of the mouse disappeared was checked. If disappeared, the mouse was in an anesthetic state, and the time of anesthesia of the mouse was recorded). • 4. After the one-hour observation, the mice were returned to the rearing cage. The observation chamber was wiped with 75% alcohol, to avoid the influence of the information left by animals in the last round (such as the smell of animals' feces and urine) on the next test result. The next round of animals were changed to continue the test.
Table C. Epilepsy-like behavior rating scale for rodents

C57BL/6J male mice [2] = experiment: Forced swimming test; conditions: for 1-h inhibition rate: i.p., immobility time 1 hr after administration
Protocol: Test animals: C57BL/6J male mice aged 10-12 weeks were purchased from Speifu (Suzhou) Biotechnology Co., Ltd. The animals arrived at the test center before the test and acclimated in the feeding room for more than 7 days. 5 animals per cage was bred at a temperature of 23-24°C, under a 12-hr light/12-hr dark cycle. Before the behavioral test, the animals were taken to the behavioral test chamber 1 hour in advance, to acclimate to the environment.
Forced swimming test is a standard behavioral test to evaluate the depressive behavior of rodents. […] It is generally accepted that this behavioral despair is similar to the depressive symptoms in humans. The objective of this test was to evaluate the antidepressant efficacy of the compound of the present invention in C57 mice.
In the FST test, the number of animals in each group (N) was 15, the administration mode was intraperitoneal injection (i.p.) or oral gavage (p.o.), the dosage of administration was 5, 10 or 20 mg/kg (depending on the experimental needs), and the volume of administration was 10 mL/kg. The vehicle was 0.9% physiological saline.
Test process: 1. The test was carried out in a quiet environment. The animals were weighed and acclimated in the test chamber for at least 30 min before the test.
2. The compound to be tested was dissolved in 0.9% physiological saline, and the corresponding volume of the compound was given by intraperitoneal injection (i.p.) or oral gavage (p.o.) according to the weight of mice and used as the test group. 0.9% physiological saline was used as the control group, and the dosage was the target dosage of administration. The administration process was double-blinded administration.
3. 1 hr after administration, the mice were placed in a transparent plexiglass water tank with a diameter of 15 cm and a height of 30 cm, in which water was injected to a height of about 15 cm, and the water temperature was 23-25°C. The total recording time was 6 min.
4. The immobility time of mice within later 4 min was analyzed, with which the degree of helplessness and despair of mice was reflected.
5. The immobility time of mice between the administration group and the control group was compared, and the antidepressant activity (1-h inhibition rate) of the compound to be tested was analyzed. The difference was analyzed by unpaired t-test to have statistical significance, P<0.05 means that there was a significant difference. * P<0.05, **P<0.01, ***P<0.001. [formula]

[3] = Solid stability test (purity, crystal form, appearance on storage)
Protocol: Crystal Form A of the hydrochloride, Crystal Form B of the phosphate, and Crystal Form C of the mesylate of Compound 2 and Crystal Form G of the hydrochloride, Crystal Form I of the phosphate, and Crystal Form J of the mesylate of Compound 3 were respectively packaged and stored at an acceleration condition of 40°C/75% RH, a routing condition of 25°C/60% RH, and a high-temperature condition of 60°C, and the purity, crystal form, and appearance of the compounds were evaluated at different times. Table 20. Solid stability test results of Crystal Form A of Compound 2 hydrochloride

Row | SMILES | NOAEL dosage (mg/kg) (score 0) (C57BL/6J male mice [1]; about one hour observation) | NOAEL doses (C57BL/6J male mice [1]) | STD10 (mg/kg) (score 8) (C57BL/6J male mice [1]) | 1-h inhibition rate (C57BL/6J male mice [2]; 5 mg/kg, 5 mg/kg) | Appearance ([3]; 0D (start of storage)) | Crystal Form ([3]; 0D (start of storage)) | Purity ([3]; 0D (start of storage)) | Appearance ([3]; 25°C/60% RH, 5D) | Crystal Form ([3]; 25°C/60% RH, 5D) | Purity ([3]; 25°C/60% RH, 5D) | Appearance ([3]; 25°C/60% RH, 10D) | Crystal Form ([3]; 25°C/60% RH, 10D) | Purity ([3]; 25°C/60% RH, 10D) | Appearance ([3]; 25°C/60% RH, 30D) | Crystal Form ([3]; 25°C/60% RH, 30D) | Purity ([3]; 25°C/60% RH, 30D) | Appearance ([3]; 40°C/75% RH, 5D) | Crystal Form ([3]; 40°C/75% RH, 5D) | Purity ([3]; 40°C/75% RH, 5D) | Appearance ([3]; 40°C/75% RH, 10D) | also measured
1 | Clc1cccc([C@@]23CCCC[C@H]2OCCN3)c1 [Crystal Form A of Compound 2 hydrochloride] | 44 mg/kg | higher than that of Comparative Compound 2-SS mesylate | 263 mg/kg | 24.6% | Dry white solid powder | Crystal Form A | 99.99% | White solid powder | Crystal Form A | 99.99% | White solid powder | Crystal Form A | 99.99% | White solid powder | Crystal Form A | 99.99% | White solid powder | Crystal Form A | 99.99% | White solid powder | antidepressant effect (C57BL/6J male mice [2]; 5 mg/kg i.p.): obvious antidepressant effect; Crystal Form ([3]; 40°C/75% RH, 10D): Crystal Form A; Purity ([3]; 40°C/75% RH, 10D): 99.99%; Appearance ([3]; 40°C/75% RH, 30D): White solid powder; Crystal Form ([3]; 40°C/75% RH, 30D): Crystal Form A; Purity ([3]; 40°C/75% RH, 30D): 99.98%; Appearance ([3]; 60°C, 5D): White solid powder; Crystal Form ([3]; 60°C, 5D): Crystal Form A; Purity ([3]; 60°C, 5D): 99.98%; Appearance ([3]; 60°C, 10D): White solid powder; Crystal Form ([3]; 60°C, 10D): Crystal Form A; Purity ([3]; 60°C, 10D): 99.99%; Appearance ([3]; 60°C, 30D): White solid powder; Crystal Form ([3]; 60°C, 30D): Crystal Form A; Purity ([3]; 60°C, 30D): 99.99%
2 | Clc1cccc([C@@]23CCCC[C@H]2OCCN3)c1 [Crystal Form C of Compound 2 mesylate] | 60 mg/kg | higher than that of Comparative Compound 2-SS mesylate | 275 mg/kg | 11.2% | Dry white solid powder | Crystal Form C | 99.97% | White solid powder | Crystal Form C | 99.99% | White solid powder | Crystal Form C | 99.99% | White solid powder | Crystal Form C | 99.99% | White solid powder | Crystal Form C | 99.96% | White solid powder | Minimum toxic dose (mg/kg) (score 1) (C57BL/6J male mice [1]; about one hour observation, epilepsy-like behavior score 1): 75 mg/kg; minimum toxic dose (score 1) (C57BL/6J male mice [1]; compared with Comparative Compounds 2-SS and 2-RR): significantly higher than those of the two Comparative Compounds 2-SS and 2-RR; antidepressant effect (C57BL/6J male mice [2]; 10 mg/kg i.p.): obvious antidepressant effect; antidepressant effect (C57BL/6J male mice [2]; 20 mg/kg i.p.): obvious antidepressant effect; 1-h inhibition rate (C57BL/6J male mice [2]; 10 mg/kg): 23.3%; 1-h inhibition rate (C57BL/6J male mice [2]; 20 mg/kg): 24.9%; Crystal Form ([3]; 40°C/75% RH, 10D): Crystal Form C; Purity ([3]; 40°C/75% RH, 10D): 99.99%; Appearance ([3]; 40°C/75% RH, 30D): White solid powder; Crystal Form ([3]; 40°C/75% RH, 30D): Crystal Form C; Purity ([3]; 40°C/75% RH, 30D): 99.99%; Appearance ([3]; 60°C, 5D): White solid powder; Crystal Form ([3]; 60°C, 5D): Crystal Form C; Purity ([3]; 60°C, 5D): 99.97%; Appearance ([3]; 60°C, 10D): White solid powder; Crystal Form ([3]; 60°C, 10D): Crystal Form C; Purity ([3]; 60°C, 10D): 99.95%; Appearance ([3]; 60°C, 30D): White solid powder; Crystal Form ([3]; 60°C, 30D): Crystal Form C; Purity ([3]; 60°C, 30D): 99.98%

Where a name gives a salt, the structure may show the parent alone.
